Source: US9901615B2, “Method for treatment of gastric ulcers” (priority 2015, dated 2018)

Key:
Assay type in all cases: cell-based, Helicobacter pylori
Conditions in all cases: NE: No effect
[1] = tested on: H. pylori ATCC 43504
Protocol: (§1) Antibacterial activities were evaluated by examining MIC; determined using the micro dilution assay in sterilized 96-well plates in a final volume of 200 μl as follows. Bacterial inocula of 0.1 OD were prepared and diluted 1000 fold in BHI broth, and 180 μl aliquots were added to each well. Working standards of antimicrobial peptides (Epi-1, TH2-3, SALF, GE-33, or Chrysophsin-1) were prepared (0.9-50 μg/mL) prior to the experiment; 20 μL of AMP solution were added to each well. PBS was used as a control. The plates were incubated overnight at 37° C. in a microaerophilic atmosphere. Growth under standard conditions was determined by optical density measurements at 600 nm.

[2] = tested on: H. pylori ATCC 43629
Protocol: as §1

[3] = tested on: H. pylori ATCC 700392
Protocol: as §1

[4] = tested on: H. pylori clinical isolate CI-HP028
Protocol: as §1

Measured: MIC

CC[C@H](C)[C@H](NC(=O)[C@H](CCCCN)NC(=O)[C@@H]1CCCN1C(=O)[C@@H](NC(=O)[C@H](CC(C)C)NC(=O)[C@H](C)NC(=O)[C@H](Cc1ccccc1)NC(=O)[C@H](Cc1ccccc1)NC(=O)CN)[C@@H](C)CC)C(=O)N[C@H](C(=O)N[C@@H](CO)C(=O)N[C@@H](CO)C(=O)N1CCC[C@H]1C(=O)N[C@@H](CC(C)C)C(=O)N[C@@H](Cc1ccccc1)C(=O)N[C@@H](CCCCN)C(=O)N[C@H](C(=O)N[C@@H](CC(C)C)C(=O)N[C@@H](CC(C)C)C(=O)N[C@@H](CO)C(=O)N[C@@H](C)C(=O)N[C@H](C(=O)NCC(=O)N[C@@H](CO)C(=O)N[C@@H](C)C(=O)N[C@@H](CC(C)C)C(=O)N[C@@H](CO)C(=O)N[C@@H](CO)C(=O)N[C@@H](CO)C(=O)NCC(=O)NCC(=O)N[C@@H](CCC(N)=O)C(=O)N[C@@H](CCC(=O)O)C(=O)O)C(C)C)[C@@H](C)O)[C@@H](C)CC [Pardaxin]
>25 µg/mL: all assays above
